Chains of the proteins cited; added tags and fusions are not shown.
UniProt P10828, whole entry: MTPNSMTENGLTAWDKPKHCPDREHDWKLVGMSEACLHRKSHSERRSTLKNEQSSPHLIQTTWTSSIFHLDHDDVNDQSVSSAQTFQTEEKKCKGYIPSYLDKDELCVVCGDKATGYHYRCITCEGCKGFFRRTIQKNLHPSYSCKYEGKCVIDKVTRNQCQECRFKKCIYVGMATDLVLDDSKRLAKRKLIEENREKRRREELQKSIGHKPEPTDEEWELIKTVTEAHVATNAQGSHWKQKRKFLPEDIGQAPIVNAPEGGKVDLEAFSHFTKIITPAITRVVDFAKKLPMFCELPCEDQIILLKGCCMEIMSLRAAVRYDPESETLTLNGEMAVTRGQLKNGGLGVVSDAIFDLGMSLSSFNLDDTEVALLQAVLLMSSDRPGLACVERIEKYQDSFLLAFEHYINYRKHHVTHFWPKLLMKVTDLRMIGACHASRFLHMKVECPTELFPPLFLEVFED

According to patent publication US20240059676A1, “THYROID HORMONE RECEPTOR b SELECTIVE AGONIST COMPOUND, PHARMACEUTICAL COMPOSITION AND USE THEREOF” (SHANGHAI INSTITUTE OF MATERIA MEDICA, CHINESE ACADEMY OF …, priority 2020, published 2024):

Key:
serum cholesterol level = assay: Lowering effect on serum cholesterol level after single administration to ICR mice; conditions: 24 h after administration, solvent control as 100%
human THRβ = human THRβ (Homo sapiens (Human), UniProt P10828); assay: THR reporter gene method, agonistic activity on THRβ (Huh7 cells, PGL4.26-DR4-Luc); format: cell-based; conditions: for β selectivity: (EC50 compound THRα/EC50 T3 THRα)/(EC50 compound THRβ/EC50 T3 THRβ); for Activity or selectivity compared with the positive control (MGL-3196): THR reporter gene assay, summary in words
[1] = single intragastric dose 30 mg/kg

Row | SMILES | Percentage of reduction in serum cholesterol level (serum cholesterol level; [1]) | β selectivity (human THRβ) | Activity or selectivity compared with the positive control (MGL-3196) (human THRβ) | Percentage of reduction in serum cholesterol level (serum cholesterol level; single intragastric dose 10 mg/kg)
1 | Cc1c(O)ccc2c1ccn2-c1c(Cl)cc(-n2nc(C#N)c(=O)[nH]c2=O)cc1Cl | 25.4% | 3.8 | significantly higher activity or selectivity than the positive control | –
2 | N#Cc1nn(-c2cc(Cl)c(-n3ccc4cc(O)cnc43)c(Cl)c2)c(=O)[nH]c1=O | – | 4.7 | – | –
3 | N#Cc1nn(-c2cc(Cl)c(-n3ncc4cc(O)ccc43)c(Cl)c2)c(=O)[nH]c1=O | 13.6% | – | – | –
4 | N#Cc1nn(-c2cc(Cl)c(-n3ccc4cc(O)ccc43)c(Cl)c2)c(=O)[nH]c1=O | – | 6 | significantly higher activity or selectivity than the positive control | 20.0%
5 | N#Cc1nn(-c2cc(Cl)c(N3CCc4cc(O)ccc43)c(Cl)c2)c(=O)[nH]c1=O | 11.6% | 8 | – | –
6 | Cc1c(O)ccc2c1cnn2-c1c(Cl)cc(-n2nc(C#N)c(=O)[nH]c2=O)cc1Cl | 15.4% | 8.4 | significantly higher activity or selectivity than the positive control | –
